Molecular target: Coagulation factor X (Homo sapiens, UniProt P00742)
Test: Binding affinity against human coagulation factor X

By UniProt entry, the sequences of proteins in these tests, tags left out. Residues count along the entry.
UniProt P00742, 41-179 limits assumed: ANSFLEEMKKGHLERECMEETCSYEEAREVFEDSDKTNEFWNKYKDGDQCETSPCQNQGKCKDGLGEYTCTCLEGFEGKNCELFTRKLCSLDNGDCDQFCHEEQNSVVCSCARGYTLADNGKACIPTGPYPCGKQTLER
UniProt P00742, 235-488 limits assumed: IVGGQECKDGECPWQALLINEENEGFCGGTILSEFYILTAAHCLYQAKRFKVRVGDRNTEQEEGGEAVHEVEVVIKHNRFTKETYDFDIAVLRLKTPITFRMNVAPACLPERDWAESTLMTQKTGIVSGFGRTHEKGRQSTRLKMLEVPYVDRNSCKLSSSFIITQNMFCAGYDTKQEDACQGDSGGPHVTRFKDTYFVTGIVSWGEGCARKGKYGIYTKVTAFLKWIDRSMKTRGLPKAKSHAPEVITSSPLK

Ki: 2100 nM
SMILES: N=C(N)c1ccc2nc(-c3cccc(-c4ccccc4)c3O)[nH]c2c1
